# Experiments:
# The chains behind the UniProt entries cited, without tags or fusion partners. Where a name states a change or a piece, a line headed by the entry shows the natural chain unless it says otherwise.
# UniProt P10635, whole entry, looked up: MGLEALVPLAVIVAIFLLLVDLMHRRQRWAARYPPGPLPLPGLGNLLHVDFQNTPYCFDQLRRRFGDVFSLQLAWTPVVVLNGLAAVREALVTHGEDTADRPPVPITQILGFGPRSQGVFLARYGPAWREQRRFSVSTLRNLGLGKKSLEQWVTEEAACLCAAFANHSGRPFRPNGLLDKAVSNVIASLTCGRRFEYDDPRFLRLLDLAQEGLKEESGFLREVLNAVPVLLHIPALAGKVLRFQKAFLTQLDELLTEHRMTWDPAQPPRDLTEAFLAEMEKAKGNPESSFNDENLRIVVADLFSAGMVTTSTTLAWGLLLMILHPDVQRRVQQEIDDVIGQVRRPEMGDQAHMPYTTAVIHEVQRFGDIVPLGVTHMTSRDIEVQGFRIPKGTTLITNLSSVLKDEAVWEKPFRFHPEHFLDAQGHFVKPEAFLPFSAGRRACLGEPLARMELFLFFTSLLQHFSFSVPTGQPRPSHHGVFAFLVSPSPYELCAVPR
# UniProt P41145: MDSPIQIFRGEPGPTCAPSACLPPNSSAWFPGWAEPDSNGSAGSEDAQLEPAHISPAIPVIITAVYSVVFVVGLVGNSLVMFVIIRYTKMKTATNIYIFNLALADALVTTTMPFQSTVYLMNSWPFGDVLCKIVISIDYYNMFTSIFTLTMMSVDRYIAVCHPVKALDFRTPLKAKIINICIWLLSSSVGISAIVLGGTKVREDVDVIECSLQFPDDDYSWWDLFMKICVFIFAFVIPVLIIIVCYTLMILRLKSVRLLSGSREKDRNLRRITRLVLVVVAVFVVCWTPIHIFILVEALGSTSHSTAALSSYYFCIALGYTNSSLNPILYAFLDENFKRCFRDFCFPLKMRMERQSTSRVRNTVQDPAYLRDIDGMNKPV
# UniProt P41143: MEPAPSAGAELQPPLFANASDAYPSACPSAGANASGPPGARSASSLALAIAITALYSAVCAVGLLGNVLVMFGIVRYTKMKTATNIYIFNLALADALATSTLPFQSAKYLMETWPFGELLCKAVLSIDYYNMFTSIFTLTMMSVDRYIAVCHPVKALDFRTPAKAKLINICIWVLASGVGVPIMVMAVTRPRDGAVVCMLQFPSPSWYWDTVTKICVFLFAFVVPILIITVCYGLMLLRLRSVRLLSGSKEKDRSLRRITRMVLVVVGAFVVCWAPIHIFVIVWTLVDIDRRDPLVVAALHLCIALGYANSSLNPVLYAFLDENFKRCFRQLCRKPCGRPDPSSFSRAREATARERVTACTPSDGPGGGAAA
# UniProt P41146: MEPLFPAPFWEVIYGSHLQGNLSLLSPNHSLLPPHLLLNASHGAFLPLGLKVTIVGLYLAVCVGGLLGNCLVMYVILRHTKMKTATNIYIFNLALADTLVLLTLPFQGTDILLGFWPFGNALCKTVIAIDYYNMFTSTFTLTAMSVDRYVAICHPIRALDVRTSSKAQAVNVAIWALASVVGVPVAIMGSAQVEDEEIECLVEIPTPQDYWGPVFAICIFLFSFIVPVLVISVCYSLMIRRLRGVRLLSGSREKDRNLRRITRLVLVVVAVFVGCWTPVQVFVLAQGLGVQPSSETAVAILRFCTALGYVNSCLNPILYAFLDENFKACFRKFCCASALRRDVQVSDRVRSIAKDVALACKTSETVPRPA
# UniProt P35372: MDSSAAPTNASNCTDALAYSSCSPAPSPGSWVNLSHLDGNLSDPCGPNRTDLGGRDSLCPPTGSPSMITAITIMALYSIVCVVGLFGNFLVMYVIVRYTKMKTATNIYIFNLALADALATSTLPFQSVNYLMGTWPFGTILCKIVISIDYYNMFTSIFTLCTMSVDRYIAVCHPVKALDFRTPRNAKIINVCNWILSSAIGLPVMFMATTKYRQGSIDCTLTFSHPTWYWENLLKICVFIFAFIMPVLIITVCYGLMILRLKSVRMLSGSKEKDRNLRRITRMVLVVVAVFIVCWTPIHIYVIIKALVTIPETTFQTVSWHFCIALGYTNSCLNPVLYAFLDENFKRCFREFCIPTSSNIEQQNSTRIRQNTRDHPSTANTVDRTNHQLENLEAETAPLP
# human CYP2D6 = human CYP2D6 (Homo sapiens, UniProt P10635); assay: Cytochrome P450 2D6 inhibition (dextromethorphan O-demethylation, pooled human hepatic microsome); settings: read-out: CYP2D6 IC50; procedure of Example 45
# kappa opioid receptor [1] = biological target: T1, kappa opioid receptor (Homo sapiens, UniProt P41145); assay: In vitro kappa-opioid receptor [35S]GTPγS functional assay; settings: read-out: GTPγS Opioid Receptor EC50 Kappa [mean ± SEM]; procedure of Example 42
# [2] = biological target: recombinant delta opioid receptor expressed in CHO-K1 cells (Homo sapiens, UniProt P41143); assay: In vitro delta-opioid receptor binding assay ([3H]-Naltrindole displacement); settings: read-out: Ki [Average ± Std Deviation] Opioid Receptor Delta; binding to delta-opioid receptor, procedure of Example 43
# [3] = biological target: T2, human opioid receptor-like (ORL-1) (Homo sapiens, UniProt P41146); assay: In vitro ORL-1 receptor [35S]GTPγS functional assay; type: biochemical; settings: procedure of Example 38; for EC50: read-out: GTPγS ORL-1 EC50 [mean ± SEM]
# kappa opioid receptor [4] = biological target: T1, kappa opioid receptor; assay: In vitro kappa-opioid receptor binding assay ([3H]-U69,593 displacement); settings: read-out: Ki [Average ± Std Deviation] Opioid Receptor Kappa; binding to kappa-opioid receptor, procedure of Example 41
# human μ-opioid receptor [5] = biological target: T3, human μ-opioid receptor (Homo sapiens, UniProt P35372); assay: In vitro mu-opioid receptor binding assay ([3H]-diprenorphine displacement); settings: read-out: Ki [Average ± Std Deviation] Opioid Receptor Mu; binding to mu-opioid receptor, procedure of Example 39
# human μ-opioid receptor [6] = biological target: T3, human μ-opioid receptor; assay: In vitro mu-opioid receptor [35S]GTPγS functional assay; type: biochemical; settings: read-out: GTPγS Opioid Receptor EC50 Mu [mean ± SEM]; procedure of Example 40
# [7] = biological target: T2, human opioid receptor-like (ORL-1); assay: In vitro ORL-1 receptor binding assay ([3H]-nociceptin displacement); settings: read-out: Ki [Average ± Std Deviation] ORL-1; binding to ORL-1 receptor, procedure of Example 37
# human δ-opioid receptors = human δ-opioid receptors (Homo sapiens, UniProt P41143); assay: In vitro delta-opioid receptor [35S]GTPγS functional assay; settings: read-out: GTPγS Opioid Receptor EC50 Delta [mean ± SEM]; procedure of Example 44
Compound,IC50 (human CYP2D6) [nM],GTPγS ORL-1 Emax [mean ± SEM] [3] [%],EC50 [3] [nM],Ki [7] [nM],also measured
CC1(C)[C@H]2CC[C@@H](CCN3[C@@H]4CCC[C@H]3C[C@@H](n3c(=O)c(-c5cccc(=O)n5CC(=O)O)nc5ccccc53)C4)[C@@H]1C2,18900,–,–,–,–
C[C@@H]1C[C@@H]2C[C@H](C1)C[C@@H](N1[C@@H]3CCC[C@H]1C[C@@H](n1c(=O)c(-c4cc[nH]c(=O)c4)nc4ccccc41)C3)C2,> 20000,–,–,–,–
C[C@@H]1C[C@@H]2C[C@H](C1)C[C@@H](N1[C@@H]3CCC[C@H]1C[C@@H](n1c(=O)c(-c4ccc[nH]c4=O)nc4ccccc41)C3)C2,> 20000,–,–,–,–
C[C@@H]1C[C@@H]2C[C@H](C1)C[C@@H](N1[C@@H]3CC[C@H]1C[C@@H](n1c(=O)c(-c4ccc[nH]c4=O)nc4ccccc41)C3)C2,8000,–,–,–,–
O=C(O)c1c[nH]c(=O)c(-c2nc3ccccc3n([C@H]3C[C@H]4CCC[C@@H](C3)N4[C@H]3C[C@@H]4CCC[C@@H](C4)C3)c2=O)c1,> 20000,–,–,–,–
O=c1[nH]cccc1-c1nc2ccccc2n([C@H]2C[C@H]3CCC[C@@H](C2)N3C2CCCCCCCCC2)c1=O,> 20000,–,–,–,–
O=c1[nH]cccc1-c1nc2ccccc2n([C@H]2C[C@H]3CCC[C@@H](C2)N3[C@@H]2C[C@@H]3CCCC[C@@H](C3)C2)c1=O,> 20000,–,–,–,–
O=c1[nH]cccc1-c1nc2ccccc2n([C@H]2C[C@H]3CCC[C@@H](C2)N3[C@H]2C[C@@H]3CCC[C@@H](C3)C2)c1=O,> 20000,–,–,–,–
O=c1[nH]cccc1-c1nc2ccccc2n([C@H]2C[C@H]3CC[C@@H](C2)N3[C@@H]2C[C@@H]3CCCC[C@@H](C3)C2)c1=O,> 20000,–,–,–,–
O=c1[nH]cccc1-c1nc2ccccc2n([C@H]2C[C@H]3CC[C@@H](C2)N3[C@H]2C[C@@H]3CCC[C@@H](C3)C2)c1=O,> 20000,–,–,–,–
O=c1[nH]cccc1-c1nc2ccccc2n([C@H]2C[C@H]3COC[C@@H](C2)N3[C@@H]2C[C@@H]3CCCC[C@@H](C3)C2)c1=O,> 20000,–,–,–,–
O=c1cc(-c2nc3ccccc3n([C@H]3C[C@H]4CCC[C@@H](C3)N4[C@H]3C[C@@H]4CCC[C@@H](C4)C3)c2=O)cc[nH]1,> 20000,–,–,–,–
O=c1ccc(-c2nc3ccccc3n([C@H]3C[C@H]4CCC[C@@H](C3)N4[C@H]3C[C@@H]4CCC[C@@H](C4)C3)c2=O)c[nH]1,> 20000,–,–,–,–
O=c1cnc(-c2nc3ccccc3n([C@H]3C[C@H]4CCC[C@@H](C3)N4[C@H]3C[C@@H]4CCC[C@@H](C4)C3)c2=O)c[nH]1,> 20000,–,–,–,–
"1-((1R,1′R,3r,3′R,5S,5′S)-[3,9′-bi(9′-azabicyclo[3.3.1]nonan)]-3′-yl)-3-(6-oxo-1,6-dihydropyridin-2-yl)quinoxalin-2(1H)-one",> 20000,30,10.9,6.19,EC50 (kappa opioid receptor [1]): > 20000 nM; Ki [2]: > 20000 nM; Ki (kappa opioid receptor [4]): 10.9 nM; Ki (human μ-opioid receptor [5]): 216 nM; EC50 (human μ-opioid receptor [6]): > 20000 nM
"1-((1R,3R,5S)-9-((1R,6S,8s)-bicyclo[4.3.1]decan-8-yl)-9-azabicyclo[3.3.1]nonan-3-yl)-3-(2-oxo-1,2-dihydropyridin-4-yl)quinoxalin-2(1H)-one",–,23.7 ± 1.2,3,0.4,–
"2-(2-(4-((1R,1′R,3r,5′R,5S,5′S,7S)-7-methyl-[3,9′-bi(9′-azabicyclo[3.3.1]nonan)]-3′-yl)-3-oxo-3,4-dihydroquinoxalin-2-yl)-6-oxopiperidin-1-yl)acetic acid",> 20000,37.3 ± 1.7,8.5,2.96,EC50 (kappa opioid receptor [1]): > 20000 nM; Ki [2]: 5410 nM; Ki (human μ-opioid receptor [5]): 115 nM; EC50 (human μ-opioid receptor [6]): > 20000 nM
"2-(6-(4-((1R,1′R,3 r,3′R,5S,5′S)-[3,9′-bi(9′-azabicyclo[3.3.1]nonan)]-3′-yl)-3-oxo-3,4-dihydroquinoxalin-2-yl)-2-oxopyridin-1(2H)-yl)acetic acid",> 20000,24.0 ± 4.5,18.7,5.58,–
"2-(6-(4-((1R,1′R,3r,3′R,5S,5′S,7S)-7-methyl-[3,9′-bi(9′-azabicyclo[3.3.1]nonan)]-3′-yl)-3-oxo-3,4-dihydroquinoxalin-2-yl)-2-oxopyridin-1(2H)-yl)acetic acid",> 20000,35.3 ± 0.9,29.1,11,EC50 (kappa opioid receptor [1]): > 20000 nM; Ki [2]: 3650 nM; Ki (kappa opioid receptor [4]): 63.3 nM; Ki (human μ-opioid receptor [5]): 59.5 nM; EC50 (human μ-opioid receptor [6]): > 20000 nM
"3-(3-(4-((1R,1′R,3r,3R,5S,5′S)-[3,9′-bi(9′-azabicyclo[3.3.1]nonan)]-3′-yl)-3-oxo-3,4-dihydroquinoxalin-2-yl)-2-oxopyridin-1(2H)-yl)-2,2-dimethylpropanoic acid",> 20000,25.3 ± 2.7,45.9,39.9,EC50 (human δ-opioid receptors): 486 nM; EC50 (kappa opioid receptor [1]): > 20000 nM; Ki [2]: 523 nM; Ki (kappa opioid receptor [4]): 148 nM; Ki (human μ-opioid receptor [5]): 261 nM; EC50 (human μ-opioid receptor [6]): > 20000 nM
"3-(4-((1R,1′R,3r,3′R,5S,5′S)-[3,9′-bi(9′-azabicyclo[3.3.1]nonan)]-3′-yl)-3-oxo-3,4-dihydroquinoxalin-2-yl)-5,5-dimethylimidazolidine-2,4-dione",> 20000,27.7 ± 1.5,17.9,7.5,EC50 (kappa opioid receptor [1]): > 20000 nM; Ki [2]: > 20000 nM; Ki (kappa opioid receptor [4]): 5 nM; Ki (human μ-opioid receptor [5]): 222 nM; EC50 (human μ-opioid receptor [6]): > 20000 nM
"N-(1-(4-((1R,1′R,3r,3′R,5S,5′S)-[3,9′-bi(9′-azabicyclo[3.3.1]nonan)]-3′-yl)-3-oxo-3,4-dihydroquinoxalin-2-yl)-2-oxo-1,2,3,4-tetrahydropyrimidin-4-ypacetamide",> 20000,36 ± 3,10.6,3.1,EC50 (kappa opioid receptor [1]): > 20000 nM; Ki [2]: 8750 nM; Ki (kappa opioid receptor [4]): 7.8 nM; Ki (human μ-opioid receptor [5]): 38.2 nM; EC50 (human μ-opioid receptor [6]): > 20000 nM
